pIC50: −log10 of the molar value.
Target: T1, C3a anaphylatoxin chemotactic receptor (Homo sapiens, UniProt Q16581)
T1 sequence (Q16581 whole entry): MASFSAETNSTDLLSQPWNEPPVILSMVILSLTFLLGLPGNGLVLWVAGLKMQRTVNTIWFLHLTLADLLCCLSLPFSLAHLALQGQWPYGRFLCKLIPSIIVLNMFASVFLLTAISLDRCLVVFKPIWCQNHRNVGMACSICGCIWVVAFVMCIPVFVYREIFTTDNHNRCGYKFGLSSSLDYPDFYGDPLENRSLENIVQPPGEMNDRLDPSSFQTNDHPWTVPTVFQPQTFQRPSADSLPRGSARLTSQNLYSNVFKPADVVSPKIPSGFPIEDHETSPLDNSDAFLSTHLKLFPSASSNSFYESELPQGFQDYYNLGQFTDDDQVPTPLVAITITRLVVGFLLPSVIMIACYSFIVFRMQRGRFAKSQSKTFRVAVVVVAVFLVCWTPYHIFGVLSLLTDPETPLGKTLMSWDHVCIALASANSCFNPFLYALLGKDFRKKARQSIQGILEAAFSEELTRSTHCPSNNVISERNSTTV
Test: Antagonist activity against C3AR in HMDMs assessed as inhibition of C3a-induced intracellular calcium release by Fluo-3 AM dye based FLIPR assay
How it was run: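 Primary human monocyte-derived macrophages (CD14+ monocytes from donor buffy coat, differentiated 7 days with 100 ng/mL M-CSF) plated 5 × 10^4 cells/well overnight at 37 °C, loaded with 4 μM Fluo-3 AM for 1 h at 37 °C. Compounds preincubated 30 min before C3a (100 nM). Fluorescence (ex 495/em 520 nm) read ≥60 s. Duplicates per point, ≥3 experiments. IC50 from nonlinear concentration–response fit.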

In the case of `NC(N)=NCCC[C@H](NC(=O)c1ccc(C(c2ccccc2)c2ccccc2)o1)C(=O)O`, the pIC50 was 5.70.

Source: BindingDB's records for doi:10.1021/jm500956p (The University of Queensland, 2014)
